Experiments:
porcine model = conditions: pig, in vivo
Experimental: Animals tested were of the porcine species from the breed Yorkshire Cross. The animals underwent surgery to place two (2) CVL catheters, 1 for infusion and 1 for plasma collection. Each animal received ˜1 L of lavage solution. The animals were allowed to recover and stabilize. Once the animals were awake and mobile, the animals were infused with 50 mcg/mL for 30 minutes.

[1] = Plasma concentration of diclofenac after local lavage delivery to the lungs in a porcine model (LC/MS); type: in vivo, porcine (Yorkshire Cross); conditions: local vs systemic administration
Experimental: Studies were performed using a porcine model to study the distribution of diclofenac in the system when administered locally (via direct administration to the lungs). The purpose of the study was to determine the systemic concentration of diclofenac after a maximal 30 minute local lavage, taking samples at specific time points for up to 30 minutes. […] Each animal received ˜1 L of lavage solution. The animals were allowed to recover and stabilize. […] For all concentration measurements herein, the sample extracts were analyzed for diclofenac by liquid chromatography/mass spectrometry (LC/MS). Spectra were compared to the validated protocol and standard curve generated for the study.

Row | SMILES | adverse events (porcine model) | clinical observations (porcine model) | lung tissue damage (porcine model) | systemic effects of local delivery (porcine model) | fold lower plasma Cmax than with systemic administration [1]
1 | C[C@@H]1C[C@H]2[C@@H]3CCC4=CC(=O)C=C[C@]4(C)[C@@]3(F)[C@@H](O)C[C@]2(C)[C@@]1(O)C(=O)COP(=O)([O-])[O-].[Na+].[Na+] [Dexamethasone sodium phosphate, disodium; [2-[(8S,9R,10S,11S,13S,14S,16R, 17R)-9-fluoro-11,17-dihydroxy-10,13,16-trimethyl-3-oxo-6,7,8, 11, 12, 14, 15, 16-octahydrocyclopenta[a]phenanthren-17-yl]-2-oxoethyl] phosphate] | did not have any adverse events | no abnormal clinical observations | no signs of lung tissue damage |  | 
2 | O=C(O)Cc1ccccc1Nc1c(Cl)cccc1Cl [Diclofenac, 2-[2-(2,6-dichloroanilino)phenyl]acetic acid] |  |  |  | did not result in significant systemic effects | more than 2000 fold
